The target of assay [1] is Serotonin 2 (5-HT2) receptor (Rattus norvegicus, UniProt P30994+P08909+P14842).
The target in assay [2] is 5-hydroxytryptamine receptor 1B (Rattus norvegicus, UniProt P28564).

The chains behind the UniProt entries cited, without tags or fusion partners. Where a name states a change or a piece, a line headed by the entry shows the natural chain unless it says otherwise.
UniProt P30994: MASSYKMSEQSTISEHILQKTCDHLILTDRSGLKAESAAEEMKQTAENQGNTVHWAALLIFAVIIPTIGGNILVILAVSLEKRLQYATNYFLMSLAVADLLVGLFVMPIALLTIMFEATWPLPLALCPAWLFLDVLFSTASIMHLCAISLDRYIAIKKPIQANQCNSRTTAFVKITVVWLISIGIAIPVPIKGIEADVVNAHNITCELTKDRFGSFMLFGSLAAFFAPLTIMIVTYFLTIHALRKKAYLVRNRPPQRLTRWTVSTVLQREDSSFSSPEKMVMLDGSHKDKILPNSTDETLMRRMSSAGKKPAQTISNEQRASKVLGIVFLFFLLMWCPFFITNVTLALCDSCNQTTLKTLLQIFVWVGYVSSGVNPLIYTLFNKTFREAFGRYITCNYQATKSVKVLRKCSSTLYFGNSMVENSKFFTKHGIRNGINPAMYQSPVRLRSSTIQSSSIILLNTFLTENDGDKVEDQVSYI
UniProt P08909: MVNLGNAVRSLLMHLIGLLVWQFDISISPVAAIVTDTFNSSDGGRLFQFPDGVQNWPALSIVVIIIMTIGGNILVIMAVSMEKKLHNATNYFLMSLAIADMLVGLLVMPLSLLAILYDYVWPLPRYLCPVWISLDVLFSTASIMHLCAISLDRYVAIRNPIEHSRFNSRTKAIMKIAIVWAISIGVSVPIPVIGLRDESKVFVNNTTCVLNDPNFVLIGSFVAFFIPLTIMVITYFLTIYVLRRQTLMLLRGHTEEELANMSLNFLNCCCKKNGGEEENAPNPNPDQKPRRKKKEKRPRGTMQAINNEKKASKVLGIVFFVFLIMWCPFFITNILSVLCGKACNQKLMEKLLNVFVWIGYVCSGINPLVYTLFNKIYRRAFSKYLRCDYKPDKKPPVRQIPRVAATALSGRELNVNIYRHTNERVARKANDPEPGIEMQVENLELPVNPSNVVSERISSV
UniProt P14842: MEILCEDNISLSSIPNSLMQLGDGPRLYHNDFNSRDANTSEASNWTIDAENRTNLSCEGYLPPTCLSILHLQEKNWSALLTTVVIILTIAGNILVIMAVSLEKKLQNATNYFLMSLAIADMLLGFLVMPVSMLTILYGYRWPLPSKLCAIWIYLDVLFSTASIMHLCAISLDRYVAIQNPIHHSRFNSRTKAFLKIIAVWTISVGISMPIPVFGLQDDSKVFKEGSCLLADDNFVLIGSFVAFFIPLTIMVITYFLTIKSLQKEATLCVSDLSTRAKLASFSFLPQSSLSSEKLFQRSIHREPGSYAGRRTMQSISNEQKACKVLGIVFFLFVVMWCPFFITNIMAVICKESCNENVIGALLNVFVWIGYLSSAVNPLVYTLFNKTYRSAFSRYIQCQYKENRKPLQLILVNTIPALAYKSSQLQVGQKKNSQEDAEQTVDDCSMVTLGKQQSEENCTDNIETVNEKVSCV
UniProt P28564, whole entry: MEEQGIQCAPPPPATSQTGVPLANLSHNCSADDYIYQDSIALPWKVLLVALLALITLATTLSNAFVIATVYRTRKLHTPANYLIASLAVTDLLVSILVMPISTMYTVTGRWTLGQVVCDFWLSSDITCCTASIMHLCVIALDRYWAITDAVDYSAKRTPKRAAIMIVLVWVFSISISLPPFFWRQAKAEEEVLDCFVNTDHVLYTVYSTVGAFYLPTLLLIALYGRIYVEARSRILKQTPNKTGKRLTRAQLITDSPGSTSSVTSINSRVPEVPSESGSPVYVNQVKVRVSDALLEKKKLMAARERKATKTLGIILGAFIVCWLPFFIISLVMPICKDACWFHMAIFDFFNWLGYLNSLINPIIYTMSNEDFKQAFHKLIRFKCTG

These results are taken from ChEMBL document CHEMBL1123653 (J Med Chem, 1987).

By Ki is commonly meant the dissociation constant of the complex between target and ligand, obtained from inhibition or displacement. A lower Ki goes with a stronger hold on the target.

Consider `COc1cc(OC)c(OC)cc1CC(C)N` (centres undefined), for which the Ki in assay [1] was determined as 1650 nM. Turning to `O=C(CCCN1CCC2(CC1)C(=O)NCN2c1ccccc1)c1ccc(F)cc1` [SPIPERONE], the inhibition constant Ki in assay [1] is recorded as 0.5 nM.

Consider `CCCN(CCC)C1CCc2cccc(O)c2C1` (centres undefined) [8-OH-DPAT], for which, in assay [2], the inhibitory constant (Ki) worked out at 63000 nM. Regarding `CCc1cc(OC)c(CC(C)N)cc1OC` (centres undefined), in assay [1], the inhibition constant Ki stood at 100 nM.
